Literature values as cited in patent US20190064129A1, “Systems And Methods To Determine Body Drug Concentration From An Oral Fluid” (Sterling Healthcare Opco, LLC, priority 2013, published 2019).

Conditions: absorption constant, referenced in literature; cited from earlier work

COc1ccc2c3c1O[C@H]1C(=O)CC[C@@]4(O)[C@@H](C2)N(C)CC[C@]314 [Oxycodone]
Ka: 3.5 h⁻¹
